pIC50: −log10 of the molar value.
Experiments:
[1] = test system: MDA-MB-453 human breast cancer cells; assay: Cell growth inhibition assay (XTT); settings: MDA-MB-453, FIG. 17b
Text: (§1) FIGS. 17a-c depict the human breast cancer cell growth and proliferation inhibition by compounds 11, 12, 36, and 38. FIG. 17a depicts the proliferation inhibition of human breast cancer cells MDA-MB-453; FIG. 17b depicts growth inhibition of MDA-MB-453; and FIG. 17c depicts a lack of growth inhibition of MDA-MB-253 breast cancer cells.
(§2) Cell lines were obtained from the American Type Culture Collection (Rockville, Md.) and Lombardi Cancer Center, Georgetown University Medical Center. Cells were routinely maintained in improved minimal essential medium (IMEM, Biofluids, Rockville, Md.) with 10% fetal bovine serum. Cultures were maintained in a humidified incubator at 37° C. and 5% CO2.
(§3) The second assay, a soluble tetrazolium/formazan (XTT) assay for cell growth in a 96-well plate was performed. Cells (2,000-4,000 cells/well) were grown in IMEM medium with 10% FBS and were treated with increasing concentrations of Grb2 inhibitors(1-50 uM). After 6-8 days culture, XTT (1.0 mg/ml plus PMS at 1.53 mg/ml) was added to each well and incubated for four hours at 37° C. Absorbance at 450 nm was measured with the Dynatech Model MR700.

Sequences of proteins named here, by UniProt entry; tags and fusion partners are left off. Residues count along the entry.
UniProt P62993, whole entry: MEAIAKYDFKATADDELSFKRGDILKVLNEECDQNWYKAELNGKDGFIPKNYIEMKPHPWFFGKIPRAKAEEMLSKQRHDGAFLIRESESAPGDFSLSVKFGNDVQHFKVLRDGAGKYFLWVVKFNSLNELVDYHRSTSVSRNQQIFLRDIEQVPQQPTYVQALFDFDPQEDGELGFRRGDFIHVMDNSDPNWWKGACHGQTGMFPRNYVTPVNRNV
UniProt P62993, 60-152 limits assumed: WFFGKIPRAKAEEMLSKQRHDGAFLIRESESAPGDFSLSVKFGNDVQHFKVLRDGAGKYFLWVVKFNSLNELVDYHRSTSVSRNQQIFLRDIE

[2] = test system: MDA-MB-453 human breast cancer cells; assay: Inhibition of cell proliferation assay on plastics; settings: MDA-MB-453, FIG. 17a
Text: as §1, §2
The effect of Grb2 inhibitors on protein synthesis was determined by two growth assays. The first assay, inhibition of cell proliferation assays were carried out on plastics to directly measure the cell killing activity. Cells that have amplified erbB-2 signaling such as the MDA-453 cells are inhibited by treatment with the tested inhibitors.

[3] = test system: MAP kinase; assay: Inhibition of MAP kinase in heregulin-treated MDA-453 cells (phospho-p44/42 MAP kinase antibody blot); settings: MDA-453 cells treated with HRG, blotting
Description: The present invention further provides a method of inhibiting the MAP kinase activity in a mammal. MAP kinases function in a protein kinase cascade that plays a critical role in the regulation of cell growth and differentiation. MAP kinases are activated by a variety of signals including growth factors, cytokines and hormones through Grb2 and other signaling proteins. For example, the state of threonine and tyrosine phosphorylation of cellular MAP kinase is determined in MDA-453 cells treated with growth factor heregulin (HRG) using a polyclonal antibody specifically recognizing the phosphorylated threonine and tyrosine residues of MAP kinase. A dose-dependent inhibition of MAP kinase activity is observed in MDA-MB-453 cells. The IC50 value of MAP kinase inhibition is 12.5 μM for compound 126, which is in consistent with cell growth inhibition.
MAP kinases function in a protein kinase cascade that plays a critical role in the regulation of cell growth and differentiation. […] The inhibition of MAP kinase in MDA-453 cells treated with growth factor heregulin (HRG) by MAP kinase specific antibody was measured. […] The protein concentration was determined by BCA method (Pierce, Rockford, Ill.). […] Activation of MAP kinase was detected with a specific antibody, i.e., phospho-p44/42 MAP kinase antibody (New England BioLabs) and visualized with ECL (Amersham, Arlington Heights, Ill.).

[4] = test system: MDA-MB-253 breast cancer cells; assay: Cell growth inhibition assay; settings: MDA-MB-253, FIG. 17c
Description: as §1, §3

[5] = biological target: Grb2 (Homo sapiens, UniProt P62993); assay: ELISA assay of Grb2 binding inhibition; settings: FIG. 19
Description: The Grb2 binding inhibition also was determined by carrying but an ELISA assay. Compounds 11 and 12 were effective in inhibiting Grb2 binding.

[6] = biological target: Grb2 SH2 domain (Homo sapiens, UniProt P62993); assay: Biacore binding assay (surface plasmon resonance), inhibition of SH2 domain binding; settings: read-out: IC50 average value, SH2 domain binding inhibition; solution IC50, SPR
Description: This Example illustrates the biological activity of the compounds of formula X as Grb2 SH2 domain binding inhibitors.
The Biacore Binding Assay
Inhibition of SH2 domain binding was determined by the Surface Plasmon Resonance (SPR) method. The solution IC50 values for peptide binding inhibition were measured as described in Yao et al., J. Med. Chem., 42, 25-35 (1999). Compounds 11, 12, and 20a had IC50 average values of 155 nM, 500 nM, and 117 nM, respectively.

Grb2 binding inhibition [5] | pIC50 [6] | Compound | growth inhibition [1] | proliferation inhibition [2] | inhibition of MAP kinase [3] | growth inhibition [4]
effective in inhibiting Grb2 binding | 6.81 | NC(=O)C[C@H](NC(=O)C1(NC(=O)[C@H](Cc2ccc(C(C(=O)O)C(=O)O)cc2)NC(=O)C(=O)O)CCCCC1)C(=O)NCCCc1cccc2ccccc12 | growth inhibition | proliferation inhibition | over 60% | lack of growth inhibition
effective in inhibiting Grb2 binding | 6.30 | CC(=O)N[C@@H](Cc1ccc(C(C(=O)O)C(=O)O)cc1)C(=O)NC1(C(=O)N[C@@H](CC(N)=O)C(=O)NCCCc2cccc3ccccc23)CCCCC1 | growth inhibition | proliferation inhibition | – | lack of growth inhibition

Source: patent publication US7825216B2
